# BindingDB's records for doi:10.1016/S0893-133X(96)00187-X (University of Toronto, 1997)
# Sequences of proteins named here, by UniProt entry; tags and fusion partners are left off.
# UniProt P14416, whole entry: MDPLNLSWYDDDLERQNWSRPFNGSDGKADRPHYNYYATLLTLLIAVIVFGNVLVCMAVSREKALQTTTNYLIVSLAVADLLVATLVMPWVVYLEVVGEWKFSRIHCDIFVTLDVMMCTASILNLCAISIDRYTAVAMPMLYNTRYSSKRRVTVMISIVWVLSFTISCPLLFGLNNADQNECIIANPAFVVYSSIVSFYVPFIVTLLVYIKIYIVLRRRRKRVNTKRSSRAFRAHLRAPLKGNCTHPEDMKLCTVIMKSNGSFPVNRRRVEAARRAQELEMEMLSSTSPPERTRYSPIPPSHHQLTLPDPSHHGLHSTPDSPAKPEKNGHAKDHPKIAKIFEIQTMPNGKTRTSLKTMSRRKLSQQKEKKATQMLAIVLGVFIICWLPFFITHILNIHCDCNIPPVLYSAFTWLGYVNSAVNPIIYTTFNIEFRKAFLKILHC
# Molecular target: D(2) dopamine receptor (Homo sapiens, UniProt P14416)
smiles,measurement,value
"CCN1CCC[C@H]1CNC(=O)c1c(O)c(Cl)cc(Cl)c1OC [3,5-Dichloro-N-(1-ethyl-pyrrolidin-2-ylmethyl)-2-hydroxy-6-methoxy-benzamide (raclopride)]",Ki,0.64 nM
